# Measured values as given in PubChem BioAssay AID938 (National Center for Advancing Translational Sciences (NCATS), 2007).
# The entries are a selection whose mix differs from that of the whole data set. Records with an inconclusive call do not appear. The source made the active and inactive calls. Calls follow the shape of the dose curve; as a rule, active = well fitted activation curve with a large enough effect; inconclusive = small, poorly fitted or top-dose-only effect; inactive = no such curve, though single readings can be large or run the other way.
# Experiment: qHTS Assay for Agonists of the Thyroid Stimulating Hormone Receptor: Activators of Intracellular cAMP Concentrations in Parental HEK 293; also: % of control where 0% means no effect; nearly all actives have a fitted effect of over 55% in size
# Conditions: parental HEK293 CNG cAMP sensor, membrane potential fluorescence; at 57.1 µM (top of the series)
row,Compound,activation
1,CCOP1(=S)c2c(C)nn(CCC#N)c2N=C(c2ccc(F)cc2)N1C (stereo unspecified),inactive: 10.3%
